Assay results as given in US20100004431A1 (Xencor, published 2010).

Amino acid sequences for entries named in this document (tags omitted). Residues count along the entry.
UniProt P01375, 77-233 limits assumed: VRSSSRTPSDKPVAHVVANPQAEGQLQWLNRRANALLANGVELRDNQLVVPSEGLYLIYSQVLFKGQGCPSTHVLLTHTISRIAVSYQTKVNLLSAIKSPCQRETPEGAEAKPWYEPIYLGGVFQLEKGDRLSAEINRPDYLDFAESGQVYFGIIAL

Target: TNFα (UniProt P01375 77-233)
Experiment: SPR (Biacore), TNFα on CM5 chip, Fab injected; mean of two runs ± SD

B1: anti-TNFα H0L0 (A2; infliximab) (Fab, V domains shown)
VH: EVKLEESGGGLVQPGGSMKLSCVASGFIFSNHWMNWVRQSPEKGLEWVAEIRSKSINSATHYAESVKGRFTISRDDSKSAVYLQMTDLRTEDTGVYYCSRNYYGSTYDYWGQGTTLTVSS
VL: DILLTQSPAILSVSPGERVSFSCRASQFVGSSIHWYQQRTNGSPRLLIKYASESMSGIPSRFSGSGSGTDFTLSINTVESEDIADYYCQQSHSWPFTFGSGTNLEVKR
**Q.** B1 was tested. Which Kd did it give?
**A.** The Kd was 2.4 nM.

**Q.** And the koff?
**A.** The koff was 0.00131 s⁻¹.

**Q.** And the kon?
**A.** Its kon is 547000 M⁻¹ s⁻¹.
